# In patent US20260384399A1, “INDAZOLE DERIVATIVES AS SEROTONERGIC AGENTS USEFUL FOR THE TREATMENT OF DISORDERS RELATED THERETO” (published 2026):
# The chains behind the UniProt entries cited, without tags or fusion partners.
# UniProt P08908, whole entry: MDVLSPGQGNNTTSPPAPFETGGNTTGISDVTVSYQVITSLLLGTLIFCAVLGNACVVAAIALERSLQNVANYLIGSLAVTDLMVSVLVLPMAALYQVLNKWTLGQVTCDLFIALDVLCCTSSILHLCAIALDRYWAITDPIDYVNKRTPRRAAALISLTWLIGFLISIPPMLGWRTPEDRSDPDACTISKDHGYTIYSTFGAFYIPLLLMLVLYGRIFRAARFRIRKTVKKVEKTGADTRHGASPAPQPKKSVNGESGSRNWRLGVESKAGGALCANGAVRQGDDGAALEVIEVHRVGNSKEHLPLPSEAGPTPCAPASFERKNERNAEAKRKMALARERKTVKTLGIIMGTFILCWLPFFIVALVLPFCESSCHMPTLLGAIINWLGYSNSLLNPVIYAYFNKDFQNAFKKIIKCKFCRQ
# UniProt P28223, whole entry: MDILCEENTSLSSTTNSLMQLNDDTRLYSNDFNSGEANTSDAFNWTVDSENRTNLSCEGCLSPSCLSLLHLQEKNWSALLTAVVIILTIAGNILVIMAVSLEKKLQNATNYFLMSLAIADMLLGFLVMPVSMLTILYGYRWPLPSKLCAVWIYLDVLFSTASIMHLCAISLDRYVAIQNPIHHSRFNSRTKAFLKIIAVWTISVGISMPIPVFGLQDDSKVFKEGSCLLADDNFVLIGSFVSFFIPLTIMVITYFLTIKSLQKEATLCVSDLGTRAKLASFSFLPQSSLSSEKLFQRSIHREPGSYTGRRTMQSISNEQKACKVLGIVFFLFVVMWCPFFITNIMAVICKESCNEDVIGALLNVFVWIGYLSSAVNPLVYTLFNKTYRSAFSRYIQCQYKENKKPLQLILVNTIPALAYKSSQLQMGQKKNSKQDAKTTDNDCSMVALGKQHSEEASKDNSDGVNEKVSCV
# Key:
# heroin addiction = conditions: compared to controls at long-term follow-ups; cited from earlier work
# [1] = molecular target: T1, human 5-hydroxytryptamine receptor 1A (5-HT1A) (Homo sapiens, UniProt P08908); test: Human 5-HT1A: Functional FLIPR Assay (agonist mode, calcium); conditions: for RFU@10 μM: human 5-HT1A FLIPR, RFU=Fmax−Fmin
# [2] = molecular target: T2, human 5-hydroxytryptamine receptor 2A (5-HT2A) (Homo sapiens, UniProt P28223); test: Human 5-HT2A: Radioligand Binding Assay ([3H]-ketanserin); conditions: read-out: h5-HT2A, IC50
# [3] = molecular target: T2, human 5-hydroxytryptamine receptor 2A (5-HT2A); test: Human 5-HT2A: Functional FLIPR Assay (agonist mode, calcium); conditions: human 5-HT2A FLIPR, RFU=Fmax−Fmin
# [4] = molecular target: T1, human 5-hydroxytryptamine receptor 1A (5-HT1A); test: Human 5-HT1A: Radioligand Binding Assay ([3H]-8-Hydroxy-DPAT); conditions: read-out: h5-HT1A, IC50
# [5] = Liver Microsomes Stability, rat; conditions: for Predicted hepatic CL / Scaled-up CLint / CLint / T1/2: rat liver microsomes, with NADPH; for CLint / T1/2: 2 μM; for Remaining Percentage (%): rat
# [6] = Liver Microsomes Stability, human; conditions: for Predicted hepatic CL / Scaled-up CLint / CLint / T1/2: human liver microsomes, with NADPH; for CLint / T1/2: 2 μM; for Remaining Percentage (%): human
# tobacco use disorder = conditions: six months follow-up; cited from earlier work
# frontal cortical regions = conditions: 15 or 20 mg orally, healthy participants; cited from earlier work
# 5-HT2 receptor = conditions: daily administration; cited from earlier work
# human 5-HT2A receptor = conditions: compared with the rat receptor; cited from earlier work
# [7] = controlled setting; dose-related; cited from earlier work
# default mode network = conditions: intravenous, humans; cited from earlier work
# [8] = test system: depression and anxiety associated with life-threatening disease; conditions: supportive setting; cited from earlier work
# [9] = test system: low attentive and low motivated rats; conditions: doses below the threshold for wet dog shake response; cited from earlier work
# 5-HT1A receptors = conditions: in words; cited from earlier work
# [10] = test system: treatment resistant, major depressive disorder and cancer-related psychosocial distress; conditions: double-blind placebo-controlled phase 2 studies; cited from earlier work
smiles,measurement,setting,value
CNC1(c2ccccc2Cl)CCCCC1=O (stereo not drawn),rates of abstinence,heroin addiction,higher rates of abstinence
COc1ccc2cnn(CCN(C)C)c2c1,RFU@10 μM,[1],1164 RFU
same,IC50,[2],5.21 µM
same,RFU@10 μM,[3],463 RFU
same,IC50,[4],46.8 nM
COc1ccc2cnn(C[C@H]3CCCN3)c2c1,IC50,[2],2.19 µM
same,IC50,[4],33.6 nM
COc1ccc2cnn(C[C@H]3CCCN3)c2c1.Cl,RFU@10 μM,[1],1165 RFU
same,Predicted hepatic CL,[5],28.35 mL/min/kg
same,Scaled-up CLint,[5],58.27 mL/min/kg
same,CLint,[5],32.52 μL/min/mg protein
same,T1/2,[5],42.62 min
same,Remaining Percentage (%),"[5]; With Cofactors, 0 min",100.00%
same,Remaining Percentage (%),"[5]; With Cofactors, 30 min",52.52%
same,Remaining Percentage (%),"[5]; With Cofactors, 60 min",37.70%
same,Remaining Percentage (%),"[5]; Without Cofactors, 0 min",100.00%
same,Remaining Percentage (%),"[5]; Without Cofactors, 30 min",97.92%
same,Remaining Percentage (%),"[5]; Without Cofactors, 60 min",102.34%
same,Predicted hepatic CL,[6],3.27 mL/min/kg
same,Scaled-up CLint,[6],3.89 mL/min/kg
same,CLint,[6],3.10 μL/min/mg protein
same,T1/2,[6],446.85 min
same,Remaining Percentage (%),"[6]; With Cofactors, 0 min",100.00%
same,Remaining Percentage (%),"[6]; With Cofactors, 30 min",92.80%
same,Remaining Percentage (%),"[6]; With Cofactors, 60 min",91.11%
same,Remaining Percentage (%),"[6]; Without Cofactors, 0 min",100.00%
same,Remaining Percentage (%),"[6]; Without Cofactors, 30 min",98.12%
same,Remaining Percentage (%),"[6]; Without Cofactors, 60 min",96.49%
same,RFU@10 μM,[3],306 RFU
[2H]C([2H])([2H])N(CCn1ncc2ccc(OC)cc21)C([2H])([2H])[2H],RFU@10 μM,[1],2486 RFU
same,EC50,"[1]; read-out: h5-HT1A, EC50, FLIPR functional assay, agonist mode, ND: not detected",3.29 µM
same,Predicted hepatic CL,[5],47.68 mL/min/kg
same,Scaled-up CLint,[5],349.75 mL/min/kg
same,CLint,[5],195.17 μL/min/mg protein
same,T1/2,[5],7.10 min
same,Remaining Percentage (%),"[5]; With Cofactors, 0 min",100.00%
same,Remaining Percentage (%),"[5]; With Cofactors, 30 min",5.35%
same,Remaining Percentage (%),"[5]; With Cofactors, 60 min",0.51%
same,Remaining Percentage (%),"[5]; Without Cofactors, 0 min",100.00%
same,Remaining Percentage (%),"[5]; Without Cofactors, 30 min",96.12%
same,Remaining Percentage (%),"[5]; Without Cofactors, 60 min",94.40%
same,Predicted hepatic CL,[6],8.94 mL/min/kg
same,Scaled-up CLint,[6],15.72 mL/min/kg
same,CLint,[6],12.54 μL/min/mg protein
same,T1/2,[6],110.55 min
same,Remaining Percentage (%),"[6]; With Cofactors, 0 min",100.00%
same,Remaining Percentage (%),"[6]; With Cofactors, 30 min",82.16%
same,Remaining Percentage (%),"[6]; With Cofactors, 60 min",68.65%
same,Remaining Percentage (%),"[6]; Without Cofactors, 0 min",100.00%
same,Remaining Percentage (%),"[6]; Without Cofactors, 30 min",96.80%
same,Remaining Percentage (%),"[6]; Without Cofactors, 60 min",89.50%
same,IC50,[2],5.17 µM
same,RFU@10 μM,[3],523 RFU
same,IC50,[4],23.8 nM
O=C(O)Cc1ccccc1Nc1c(Cl)cccc1Cl,Predicted hepatic CL,[5],40.90 mL/min/kg
same,Predicted hepatic CL,[6],18.43 mL/min/kg
[2H]C([2H])([2H])N(CCn1ncc2ccc(F)cc21)C([2H])([2H])[2H],RFU@10 μM,[1],162 RFU
same,IC50,[2],3.58 µM
same,RFU@10 μM,[3],599 RFU
same,IC50,[4],486 nM
CN(C)CCc1c[nH]c2cccc(OP(=O)(O)O)c12,RFU@10 μM,[1],143 RFU
same,abstinence rate,tobacco use disorder,80%
same,absolute metabolic rate of glucose in frontal cortical regions,frontal cortical regions,increased absolute metabolic rate of glucose in frontal
same,5-HT2 receptor density in rat brain,5-HT2 receptor,reduce 5-HT2 receptor density in rat brain
same,affinity for the human 5-HT2A receptor,human 5-HT2A receptor,stronger affinity for the human 5-HT2A receptor than for the rat receptor
same,adverse effects,[7],"transient, delayed headache"
same,oscillatory power in areas of the brain's default mode network,default mode network,decreases in oscillatory power
same,anti-depressant and anxiolytic effects,[8],significant and sustained anti-depressant and anxiolytic effects
same,performance on 5 choice serial reaction time and progressive ratio tasks,[9],improved performance
same,activation of 5-HT1A receptors,5-HT1A receptors,activates 5-HT1A receptors
same,relief of anxiety and depression,[10],unprecedented positive relief of anxiety and depression
same,RFU@10 μM,[3],257 RFU
CN(C)CCn1ncc2ccc(F)cc21,RFU@10 μM,[1],268 RFU
same,IC50,[2],3.4 µM
same,RFU@10 μM,[3],491 RFU
same,IC50,[4],616 nM
CCN(CC)C(=O)[C@@H]1C=C2c3cccc4[nH]cc(c34)C[C@H]2N(C)C1,oscillatory power in areas of the brain's default mode network,default mode network,decreases in oscillatory power
same,anti-depressant and anxiolytic effects,[8],significant and sustained anti-depressant and anxiolytic effects
same,rates of abstinence,heroin addiction,higher rates of abstinence
COc1ccc2cnn(C[C@H]3CCCN3C)c2c1,RFU@10 μM,[1],76 RFU
same,IC50,[2],> 30 µM
same,RFU@10 μM,[3],251 RFU
same,IC50,[4],420 nM
CN(C)CCc1c[nH]c2cccc(O)c12,RFU@10 μM,[1],140 RFU
CN1CCC[C@@H]1Cn1ncc2ccc(F)cc21,RFU@10 μM,[1],87 RFU
same,IC50,[2],19.4 µM
same,RFU@10 μM,[3],534 RFU
same,IC50,[4],924 nM
COc1ccc2cnn(C[C@@H]3CCCN3C)c2c1,IC50,[2],> 30 µM
same,RFU@10 μM,[3],367 RFU
Fc1ccc2cnn(C[C@H]3CCCN3)c2c1,RFU@10 μM,[1],170 RFU
same,RFU@10 μM,[3],280 RFU
same,IC50,[4],668 nM
